Our source for the inhibition values is PubChem BioAssay AID651687 (Broad Institute, 2012).

Structures are written as SMILES. This is a selection; strong and weak results do not stand in their true shares. The source made the active and inactive calls.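 Rule for the calls: active = every replicate shows inhibition of at least 40%; inconclusive = mean inhibition at least 40% but some replicate below; inactive = the rest.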

This test is described as follows: compounds lowering acetylated PGC1a in cells – cell-based, U2OS, AlphaScreen, inhibitor mode, primary screen (AID 651687).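 Note: 0% = neutral control wells and 100% = positive control wells.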 The settings on record: U2OS PGC1a acetylation, AlphaScreen anti-acetyl-lysine; at 15.6 µM; hits give high values; with virally co-expressed GCN5 acetyltransferase. On the technique in general: Bead proximity is the source of the signal in Alpha formats.
Usually inhibition stands for the relative decrease from the control value, in per cent. On to `CN1CCC(Nc2ccc(Cl)cc2)CC1`, for which the inhibition is inactive: -2.67%.

On to `CCC(CO)(C(=O)OC1CN2CCC1CC2)c1ccccc1` (configuration not stated), for which the inhibition is inactive: 4.1%.

With `COc1cccc(C(=O)N(c2cc(C)cc(C)c2)C2CCN(C(=O)OC(C)(C)C)CC2)c1`, the inhibition is inactive: -16.5%.

For `COc1cccc(C(c2nnnn2C2CCCC2)N2CCC(n3c(=O)[nH]c4ccccc43)CC2)c1OC` (configuration not stated), the inhibition was inactive: -13%.

Consider `COc1cc(OC)cc(C(=O)NCC2(N3CCOCC3)CCCCC2)c1`, for which the inhibition was inactive: 4.21%.

`O=c1[nH]c2ccccc2n1C1CCN(C(c2cc3ccccc3o2)c2nnnn2C2CCCC2)CC1` (configuration not stated): the inhibition is inactive: -20.3%.

As for `O=C(O)C1(Nc2ccccc2)CCN(Cc2ccccc2)CC1`, the inhibition was inactive: -10.4%.

Consider `CC(C)(C)OC(=O)N1CCC(Nc2ccccc2)CC1`, for which the inhibition was inactive: -22.7%.

Consider `CCOc1ncccc1C(=O)NCC1(N2CCOCC2)CCCCC1`, for which the inhibition was inactive: -0.662%.

For `Cn1c(=O)[nH]cc(N(CCCl)CCCl)c1=O`, the inhibition is inactive: -4.63%.

Take `O=C(NCC1(N2CCCCC2)CCCCC1)c1ccco1`: the inhibition was inactive: -2.53%.

As to `CC(C)(C)n1nnnc1C(c1ccnc2ccccc12)N1CCC(n2c(=O)[nH]c3ccccc32)CC1` (configuration not stated), the inhibition was inactive: 3.48%.

In the case of `COc1ccc(C(c2nnnn2C2CCCCC2)N2CCC(n3c(=O)[nH]c4ccccc43)CC2)cc1` (configuration not stated), the inhibition is inactive: -13.7%.

Regarding `Cc1ccccc1NC1(C#N)CCN(Cc2ccccc2)CC1`, the inhibition is inactive: -2.32%.

As for `Cc1ccc(NC2(C#N)CCN(Cc3ccccc3)CC2)cc1`, the inhibition was inactive: -5.93%.

For `Fc1ccccc1NC1CCN(Cc2ccccc2)CC1`, the inhibition is inactive: -8.82%.

For `Cc1ccc(C(=O)NCC2(N3CCCCC3)CCCCC2)o1`, the inhibition was inactive: 9.94%.

In the case of `O=c1[nH]c2ccccc2n1C1CCN(C(c2ccnc3ccccc23)c2nnnn2C2CCCCC2)CC1` (configuration not stated), the inhibition was inactive: -5.47%.

With `CCC(c1nnnn1C1CCCCC1)N1CCC(n2c(=O)[nH]c3ccccc32)CC1` (configuration not stated), the inhibition is inactive: -18.9%.

On to `CC(=O)N(c1ccccc1)C1CCNCC1`, for which the inhibition was inactive: 3.3%.

With `COc1cccc(C(c2nnnn2C2CCCCC2)N2CCC(n3c(=O)[nH]c4ccccc43)CC2)c1OC` (configuration not stated), the inhibition was inactive: -14.7%.

On to `CC(C)(C)n1nnnc1C(c1cccc2ccccc12)N1CCC(n2c(=O)[nH]c3ccccc32)CC1` (configuration not stated), for which the inhibition is inactive: -10.4%.

`O=c1[nH]c2ccccc2n1C1CCN(C(c2ccccc2)c2nnnn2C2CCCC2)CC1` (configuration not stated): the inhibition was inactive: -2.22%.

`CCCN1CCC(Nc2cc(OC)cc(OC)c2)CC1`: the inhibition is inactive: 1.89%.

On to `Cc1cc(N(CCCl)CCCl)ccc1C=O`, for which the inhibition was inactive: 0.204%.

On to `c1ccc(CN2CCC(Nc3ccccc3)CC2)cc1`, for which the inhibition is inactive: -1.06%.

For the compound `CN(C)C1(CNC(=O)c2cccc(C#N)c2)CCCCC1`, the inhibition was inactive: 7.57%.

For the compound `CC(C)(C)OC(=O)N1CCC(N(C(=O)c2ccccc2)c2ccc(Cl)cc2)CC1`, the inhibition was inactive: 10.3%.

For `N#Cc1ccc(C(=O)NCC2(N3CCCCC3)CCCCC2)cc1`, the inhibition is inactive: -3.75%.

On to `CCCCn1nnnc1C(c1cccc(OC)c1OC)N1CCC(n2c(=O)[nH]c3ccccc32)CC1` (configuration not stated), for which the inhibition was inactive: -8.04%.

Consider `O=c1[nH]c2ccccc2n1C1CCN(C(c2cccs2)c2nnnn2C2CCCC2)CC1` (configuration not stated), for which the inhibition was inactive: -49.4%.

Regarding `N/C(=N\O)c1c(N)no[n+]1[O-]`, the inhibition is inactive: 3.18%.

Take `COc1cccc(C(c2nnnn2C(C)(C)C)N2CCC(n3c(=O)[nH]c4ccccc43)CC2)c1OC` (configuration not stated): the inhibition is inactive: -21.3%.

With `CCOC(=O)N1CCC(Nc2ccc(C)cc2)CC1`, the inhibition was inactive: 4.9%.

On to `O=c1[nH]c2ccccc2n1C1CCN(C(c2ccnc3ccccc23)c2nnnn2C2CCCC2)CC1` (configuration not stated), for which the inhibition is inactive: -0.245%.

Take `COc1ccc(C(=O)NCC2(N3CCOCC3)CCCCC2)cc1OC`: the inhibition is inactive: -4.06%.

For the compound `O=c1[nH]c2ccccc2n1C1CCN(C(c2cccs2)c2nnnn2C2CCCCC2)CC1` (configuration not stated), the inhibition was inactive: -25.6%.

With `O=C(NCC1(N2CCOCC2)CCCCC1)c1cc(Br)ccc1Cl`, the inhibition is inactive: 4.7%.

`COc1cc(C(=O)NCC2(N3CCOCC3)CCCCC2)cc(OC)c1C`: the inhibition is inactive: 1.45%.

For the compound `CCCCn1nnnc1C(c1ccccc1)N1CCC(n2c(=O)[nH]c3ccccc32)CC1` (configuration not stated), the inhibition is inactive: 0.747%.

Consider `CCCOc1ccc(C(=O)NCC2(N(C)C)CCCCC2)cc1OC`, for which the inhibition was inactive: -7.79%.

In the case of `Cc1ccc(C(=O)NCC2(N(C)C)CCCCC2)o1`, the inhibition is inactive: -21.7%.

Consider `COc1ccc(C(c2nnnn2C2CCCC2)N2CCC(n3c(=O)[nH]c4ccccc43)CC2)cc1` (configuration not stated), for which the inhibition is inactive: -23.2%.

For the compound `O=C(NCC1(N2CCCCC2)CCCCC1)c1cncc(Br)c1`, the inhibition is inactive: 4.94%.

`CN1CCC(Nc2cccc(F)c2)CC1`: the inhibition was inactive: 5.9%.

Regarding `CCCCn1nnnc1C(c1ccnc2ccccc12)N1CCC(n2c(=O)[nH]c3ccccc32)CC1` (configuration not stated), the inhibition was inactive: 5.44%.

For the compound `O=C(NCC1(N2CCOCC2)CCCCC1)c1cc(F)c(F)cc1Cl`, the inhibition was inactive: -5.2%.

Consider `CCC(c1nnnn1C(C)(C)C)N1CCC(n2c(=O)[nH]c3ccccc32)CC1` (configuration not stated), for which the inhibition is inactive: -19.9%.

For the compound `COc1cc(OC)c(C(=O)NCC2(N(C)C)CCCCC2)cc1OC`, the inhibition is inactive: -10.9%.

For `COc1ccc(CN(CCCl)CCCl)cc1Cl`, the inhibition is inactive: -15.7%.

For `CC(C)c1ccc(NC2CCN(C(=O)OC(C)(C)C)CC2)cc1`, the inhibition is inactive: 1.84%.

For `CCCCn1nnnc1C(c1ccccc1OC(F)(F)F)N1CCC(n2c(=O)[nH]c3ccccc32)CC1` (configuration not stated), the inhibition was inactive: -3.53%.

In the case of `CCCCn1nnnc1C(c1cccc2ccccc12)N1CCC(n2c(=O)[nH]c3ccccc32)CC1` (configuration not stated), the inhibition is inactive: -14.2%.

Turning to `COc1ccc(NC2CCN(C(=O)OC(C)(C)C)CC2)cc1`, the inhibition was inactive: -4.55%.

Take `CN1CCN(CCOC(=O)C(O)(c2ccccc2)c2ccccc2)CC1`: the inhibition is inactive: 6.45%.

On to `O=C(NCC1(N2CCOCC2)CCCCC1)c1cc(=O)[nH]c2ccccc12`, for which the inhibition was inactive: 0.604%.

Regarding `COc1cc(C(=O)NCC2(N3CCCCC3)CCCCC2)ccc1OC(F)F`, the inhibition was inactive: -1.63%.

Take `O=C(NCC1(N2CCCCC2)CCCCC1)c1cccc(C(F)(F)F)c1`: the inhibition is inactive: 19.8%.

As for `CSc1ccc(C(=O)NCC2(N3CCOCC3)CCCCC2)cc1`, the inhibition is inactive: 2.14%.

As to `N#CC1(Nc2ccccc2)CCN(CCc2ccccc2)CC1`, the inhibition was inactive: -2.31%.

In the case of `O=c1[nH]c2ccccc2n1C1CCN(C(c2ccccc2OC(F)(F)F)c2nnnn2C2CCCC2)CC1` (configuration not stated), the inhibition was inactive: -53.1%.

Take `CCN1CCC(Nc2ccc(Cl)cc2)CC1`: the inhibition was inactive: 3.04%.

For `O=C(NCC1(N2CCCCC2)CCCCC1)c1ccc(OC(F)F)cc1`, the inhibition is inactive: -4.06%.

With `CC(C)(C)n1nnnc1C(c1ccccc1OC(F)(F)F)N1CCC(n2c(=O)[nH]c3ccccc32)CC1` (configuration not stated), the inhibition was inactive: -18.2%.

Take `O=c1[nH]c2ccccc2n1C1CCN(C(c2cccc3ccccc23)c2nnnn2C2CCCC2)CC1` (configuration not stated): the inhibition is inactive: -30.8%.

Turning to `COc1cc(C(=O)NCC2(N(C)C)CCCCC2)ccc1OC(F)F`, the inhibition is inactive: -3.44%.

Turning to `CCOC(=O)N1CCC(Nc2cccc(C)c2)CC1`, the inhibition is inactive: -7.33%.

For the compound `O=c1[nH]c2ccccc2n1C1CCN(C(c2ccccc2)c2nnnn2C2CCCCC2)CC1` (configuration not stated), the inhibition was inactive: -24.7%.

`COc1ccc(NC2CCN(CCc3ccccc3)CC2)c(OC)c1`: the inhibition was inactive: -9.34%.

For the compound `O=P1(N(CCCl)CCCl)SCCCS1`, the inhibition was inactive: -12.2%.

As for `CCCCn1nnnc1C(c1cc2ccccc2o1)N1CCC(n2c(=O)[nH]c3ccccc32)CC1` (configuration not stated), the inhibition is inactive: -12.5%.

In the case of `CCOc1ccc(C)cc1CN(CCCl)CCCl`, the inhibition is inactive: 0.438%.

Take `O=C1CCN(Cc2ccccc2)CC1`: the inhibition was inactive: -4.9%.

For the compound `CC(C)(C)n1nnnc1C(c1ccccc1)N1CCC(n2c(=O)[nH]c3ccccc32)CC1` (configuration not stated), the inhibition was inactive: -12.1%.

Consider `CCCCn1nnnc1C(c1ccc(OC)cc1)N1CCC(n2c(=O)[nH]c3ccccc32)CC1` (configuration not stated), for which the inhibition is inactive: -15.9%.

`CCOC(=O)N1CCC(Nc2ccc(OC)cc2)CC1`: the inhibition is inactive: -0.349%.

As to `COc1ccc(Cl)cc1C(=O)NCC1(N2CCOCC2)CCCCC1`, the inhibition is inactive: -1.7%.

For the compound `O=c1[nH]c2ccccc2n1C1CCN(C(c2cc3ccccc3o2)c2nnnn2C2CCCCC2)CC1` (configuration not stated), the inhibition is inactive: -30.2%.

In the case of `O=C(OC1CN2CCC1CC2)C1c2ccccc2Oc2ccccc21` (configuration not stated), the inhibition is inactive: -7.44%.

In the case of `O=C(NCC1(N2CCCCC2)CCCCC1)c1ccc(Cl)s1`, the inhibition is inactive: 5.71%.

Turning to `O=C(NCC1(N2CCOCC2)CCCCC1)c1cc2ccccc2o1`, the inhibition was inactive: -11.7%.

On to `Cc1cc(C)cc(N(C(=O)c2ccccc2)C2CCN(C(=O)OC(C)(C)C)CC2)c1`, for which the inhibition is inactive: -19.9%.

As to `O=c1[nH]c2ccccc2n1C1CCN(C(c2ccccc2OC(F)(F)F)c2nnnn2C2CCCCC2)CC1` (configuration not stated), the inhibition is inactive: -53.2%.

Regarding `Cc1cccc(NC2(C#N)CCN(Cc3ccccc3)CC2)c1`, the inhibition was inactive: 6.44%.

`CCCCn1nnnc1C(c1cccs1)N1CCC(n2c(=O)[nH]c3ccccc32)CC1` (configuration not stated): the inhibition was inactive: -14.7%.

Turning to `CCCCn1nnnc1C(CC)N1CCC(n2c(=O)[nH]c3ccccc32)CC1` (configuration not stated), the inhibition is inactive: -21.5%.

`O=C(NCC1(N2CCCCC2)CCCCC1)c1cccs1`: the inhibition was inactive: -6.3%.

For the compound `O=C(NCC1(N2CCCCC2)CCCCC1)c1ccc(=O)[nH]c1`, the inhibition was inactive: 6.42%.

Regarding `CCC(c1nnnn1C1CCCC1)N1CCC(n2c(=O)[nH]c3ccccc32)CC1` (configuration not stated), the inhibition is inactive: -20.8%.

For the compound `COc1ccc(C(=O)NCC2(N3CCCCC3)CCCCC2)c(OC)c1OC`, the inhibition is inactive: -6.79%.

`CC(C)(C)OC(=O)N1CCC(N(C(=O)c2ccccc2)c2ccc(F)cc2)CC1`: the inhibition is inactive: 1.39%.

For the compound `COc1ccc(C(=O)NCC2(N3CCCCC3)CCCCC2)cc1`, the inhibition was inactive: -0.593%.
